Assay results reported in patent US20100075374A1, “Methods for capturing nascent proteins” (AMBERGEN, INC., priority 2007, published 2010).

Key:
[1] = target: T1, human recombinant ZAP-70 tyrosine kinase (Homo sapiens, UniProt P43403); assay: kinase substrate profiling on photo-transferred proteins, phosphotyrosine detection; type: biochemical; conditions: plus ATP kinase reaction, 30 min at 37° C.
T1 construct: purchased Invitrogen Corporation
T1 sequence (P43403 1-619): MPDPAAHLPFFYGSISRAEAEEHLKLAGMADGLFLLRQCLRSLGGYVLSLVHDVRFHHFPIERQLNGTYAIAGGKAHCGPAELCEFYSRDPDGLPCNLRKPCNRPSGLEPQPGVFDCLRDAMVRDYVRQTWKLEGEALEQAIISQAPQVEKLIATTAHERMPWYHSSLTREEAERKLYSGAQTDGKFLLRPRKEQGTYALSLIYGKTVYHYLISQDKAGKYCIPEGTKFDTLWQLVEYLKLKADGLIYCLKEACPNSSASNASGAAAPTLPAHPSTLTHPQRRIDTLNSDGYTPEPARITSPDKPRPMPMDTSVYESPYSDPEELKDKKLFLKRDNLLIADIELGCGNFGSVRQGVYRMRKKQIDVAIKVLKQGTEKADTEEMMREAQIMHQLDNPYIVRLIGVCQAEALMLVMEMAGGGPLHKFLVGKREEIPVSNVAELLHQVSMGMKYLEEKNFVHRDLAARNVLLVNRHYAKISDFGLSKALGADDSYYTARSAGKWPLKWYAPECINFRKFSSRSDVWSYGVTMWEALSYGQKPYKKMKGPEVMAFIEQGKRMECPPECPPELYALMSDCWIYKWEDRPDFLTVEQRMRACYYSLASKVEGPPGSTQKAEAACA

[2] = target: T2, human recombinant Src pp^60 tyrosine kinase (Homo sapiens, UniProt P12931); assay: as above; type: biochemical; conditions: plus ATP kinase reaction, 30 min at 37° C.
T2 construct: purchased Invitrogen Corporation

phosphorylation by ZAP-70 [1]: heavily phosphorylate
phosphorylation by Src pp^60 [2]: heavily phosphorylate
Substance: MDM: cell-free expressed human ubiquitin-protein ligase E3 MDM2, contact photo-transferred to microarray
